## Apparent affinities of Ab-95 variants for a coronavirus HR2 peptide

All variants were tested on one target, the spike HR2 peptide PDVDLGDISGINAS (SARS-CoV-2).

The variants keep the heavy chain, the linker and the frameworks of Ab-95 (scFv order VH, a 15-residue (Gly4Ser)3 linker, VL).
VH: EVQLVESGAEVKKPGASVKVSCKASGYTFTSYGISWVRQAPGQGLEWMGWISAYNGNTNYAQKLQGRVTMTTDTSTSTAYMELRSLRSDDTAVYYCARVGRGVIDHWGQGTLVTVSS
VL: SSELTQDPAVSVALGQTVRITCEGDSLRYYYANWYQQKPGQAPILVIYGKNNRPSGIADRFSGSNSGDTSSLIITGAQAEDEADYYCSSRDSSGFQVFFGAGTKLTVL

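The starting antibody came from a phage panning campaign against this peptide. Library AAYL52 holds single substitutions and randomly drawn double and triple substitutions in the CDRs. AlphaSeq pools MATa yeast showing the antibodies with MATalpha yeast showing the peptide. Mating (16 h, 30 °C) was followed by selection of diploids and sequencing of their barcodes. The ratio of observed to expected reads was calibrated, replicate by replicate, on BCL2-family standards whose Kd was known from biolayer interferometry. Each pool was mated in three replicate cultures.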

Substitutions are numbered in sequence along the VL above, starting at 1 (not Kabat). The read-out is the apparent dissociation constant on a log10 scale (nM): the lower, the stronger. A mean of the replicates is given; it leaves out those without a signal. An entry "not detected" has no value in the source: the pair was not observed among the diploids in any replicate. This suggests poor binding but is not conclusive. Empty control strains, which show no peptide, gave a signal in 28% of pairings with library AAYL52; the median was 3.91 and 95% of these signals were weaker than 2.90. No background was subtracted. Parent in this assay: reference entry 2.31, copy in this library 2.25.

changes,mean log10 Kd (nM),detected
G49Y+Q96P+V97C,4.03,2/3
G24A+R28S+G49A,4.01,1/3
E23D+K50N,2.04,3/3
Y29N+R53P+V97M,3.63,2/3
E23D+G24S+N51M,not detected,0/3
L27Y+R28K+S88F,not detected,0/3
A32Y+R90C+S92V,3.54,1/3
E23R+S89P+V97P,2.53,3/3
E23M+S26G+A32H,2.53,3/3
S26P+S89D+D91M,3.69,2/3
R53A+S92N+F95H,not detected,0/3
Y29W+Y30N+A32K,not detected,0/3
K50P+S92V+S93G,2.73,3/3
L27C+Q96L+F98P,not detected,0/3
D91P+F98N,3.20,3/3
E23Y+Y31G+N52K,2.34,3/3
G24Q+Y29I+Q96A,4.53,3/3
L27H+Y29F+N52P,not detected,0/3
R28T+P54W+R90I,3.39,1/3
N52D+R90F,not detected,0/3
Y29R+K50W+F98R,3.84,3/3
E23G+G24M+L27H,3.91,3/3
R90Y+D91V+F98T,2.78,3/3
P54H+S93E+Q96T,3.17,2/3
D25C+A32I+N33T,not detected,0/3
N33M+N51W+F95R,3.67,1/3
G24C+D25M+N33Y,not detected,0/3
S88V+S89R+F98I,not detected,0/3
D25C+A32E+N52G,3.60,1/3
K50W+S55D+D91S,4.00,2/3
D91N+F98L,3.11,1/3
G24A+S92C+Q96C,not detected,0/3
P54M+S88W+S89C,3.92,1/3
Y29A+P54M+F98R,3.48,2/3
Y29K+N52C+D91A,2.78,3/3
G94H+Q96C+V97F,4.01,2/3
D25P+L27G+R28C,3.91,3/3
Y29S+S88Y+V97E,not detected,0/3
G24I+D91A+S92W,3.06,1/3
S26N+V97M+F98I,2.74,3/3
D25F+N33S+S93M,4.39,3/3
S55P+V97I,2.66,3/3
N52S+R53A+F95L,3.83,2/3
A32F+N52L+G94F,4.40,1/3
G24Y+R53P+R90Q,not detected,0/3
Y30V+N51P+P54E,4.61,1/3
S26P+P54D+S89I,not detected,0/3
E23W+D25G+N52A,3.10,2/3
L27S+S89P+F95L,not detected,0/3
S55D+S92V+F95E,2.45,3/3
G24H+G49Y+S89I,not detected,0/3
R53S+G94D+Q96G,3.25,3/3
G24C+G49M+P54Y,3.45,1/3
S55R+S93P,3.09,3/3
Y30P+N33M+N52Q,1.93,3/3
Y31Q+N51I+G94Y,3.24,3/3
G49H+P54W+S93D,not detected,0/3

Excerpt, the final 7 entries:

changes,mean log10 Kd (nM),detected
G24H+G49Y+S89I,not detected,0/3
R53S+G94D+Q96G,3.25,3/3
G24C+G49M+P54Y,3.45,1/3
S55R+S93P,3.09,3/3
Y30P+N33M+N52Q,1.93,3/3
Y31Q+N51I+G94Y,3.24,3/3
G49H+P54W+S93D,not detected,0/3

Reference: Engelhart et al. 2022, doi:10.1038/s41597-022-01779-4. File: FLAb, binding data.